Source: US12280039B2, “Cancer vaccine compositions and methods of use thereof” (priority 2018, dated 2025)

System: live 4T1 tumor cells
Assay: Serum IgG antibody binding to live 4T1 tumor cells
Format: in vivo, mice
Conditions: serum IgG on live 4T1 cells

## CC(C)Cn1cnc2c(N)nc3ccccc3c21 [Imiquimod, imiquimod]
  mice having very high staining: 3 of the 5
